These results are taken from ChEMBL document CHEMBL3588744, “Structure-Based Optimization of Naphthyridones into Potent ATAD2 Bromodomain Inhibitors” (J Med Chem, 2015).

Amino acid sequences for entries named in this document (tags omitted).
UniProt P25440, whole entry: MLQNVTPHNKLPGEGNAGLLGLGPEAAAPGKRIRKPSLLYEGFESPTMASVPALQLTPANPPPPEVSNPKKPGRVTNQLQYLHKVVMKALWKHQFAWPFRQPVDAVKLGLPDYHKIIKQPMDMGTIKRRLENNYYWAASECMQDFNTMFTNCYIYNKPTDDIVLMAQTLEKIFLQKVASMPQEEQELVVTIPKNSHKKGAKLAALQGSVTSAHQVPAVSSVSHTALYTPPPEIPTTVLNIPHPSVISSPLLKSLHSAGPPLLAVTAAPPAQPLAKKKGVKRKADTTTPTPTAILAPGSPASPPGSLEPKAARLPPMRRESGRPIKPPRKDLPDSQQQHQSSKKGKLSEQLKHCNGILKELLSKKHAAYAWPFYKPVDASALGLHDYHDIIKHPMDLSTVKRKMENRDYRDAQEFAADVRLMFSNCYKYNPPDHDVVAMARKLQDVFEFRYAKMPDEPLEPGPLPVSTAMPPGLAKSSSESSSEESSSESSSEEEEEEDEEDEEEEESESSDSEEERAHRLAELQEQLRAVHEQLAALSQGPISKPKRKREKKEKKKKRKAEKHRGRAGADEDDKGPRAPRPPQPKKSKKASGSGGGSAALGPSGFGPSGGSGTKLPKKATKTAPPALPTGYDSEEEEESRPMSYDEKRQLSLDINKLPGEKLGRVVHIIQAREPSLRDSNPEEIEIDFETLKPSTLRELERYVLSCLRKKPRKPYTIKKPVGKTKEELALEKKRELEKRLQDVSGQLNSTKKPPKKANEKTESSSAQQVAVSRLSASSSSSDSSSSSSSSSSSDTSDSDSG

“And” between values parts separate entries of the source, which are not always exact repeats. Equal values may be shown once.

The target of test [1] is T1, ATPase family AAA domain-containing protein 2 (Homo sapiens, UniProt Q6PL18).
T1 sequence (Q6PL18 whole entry): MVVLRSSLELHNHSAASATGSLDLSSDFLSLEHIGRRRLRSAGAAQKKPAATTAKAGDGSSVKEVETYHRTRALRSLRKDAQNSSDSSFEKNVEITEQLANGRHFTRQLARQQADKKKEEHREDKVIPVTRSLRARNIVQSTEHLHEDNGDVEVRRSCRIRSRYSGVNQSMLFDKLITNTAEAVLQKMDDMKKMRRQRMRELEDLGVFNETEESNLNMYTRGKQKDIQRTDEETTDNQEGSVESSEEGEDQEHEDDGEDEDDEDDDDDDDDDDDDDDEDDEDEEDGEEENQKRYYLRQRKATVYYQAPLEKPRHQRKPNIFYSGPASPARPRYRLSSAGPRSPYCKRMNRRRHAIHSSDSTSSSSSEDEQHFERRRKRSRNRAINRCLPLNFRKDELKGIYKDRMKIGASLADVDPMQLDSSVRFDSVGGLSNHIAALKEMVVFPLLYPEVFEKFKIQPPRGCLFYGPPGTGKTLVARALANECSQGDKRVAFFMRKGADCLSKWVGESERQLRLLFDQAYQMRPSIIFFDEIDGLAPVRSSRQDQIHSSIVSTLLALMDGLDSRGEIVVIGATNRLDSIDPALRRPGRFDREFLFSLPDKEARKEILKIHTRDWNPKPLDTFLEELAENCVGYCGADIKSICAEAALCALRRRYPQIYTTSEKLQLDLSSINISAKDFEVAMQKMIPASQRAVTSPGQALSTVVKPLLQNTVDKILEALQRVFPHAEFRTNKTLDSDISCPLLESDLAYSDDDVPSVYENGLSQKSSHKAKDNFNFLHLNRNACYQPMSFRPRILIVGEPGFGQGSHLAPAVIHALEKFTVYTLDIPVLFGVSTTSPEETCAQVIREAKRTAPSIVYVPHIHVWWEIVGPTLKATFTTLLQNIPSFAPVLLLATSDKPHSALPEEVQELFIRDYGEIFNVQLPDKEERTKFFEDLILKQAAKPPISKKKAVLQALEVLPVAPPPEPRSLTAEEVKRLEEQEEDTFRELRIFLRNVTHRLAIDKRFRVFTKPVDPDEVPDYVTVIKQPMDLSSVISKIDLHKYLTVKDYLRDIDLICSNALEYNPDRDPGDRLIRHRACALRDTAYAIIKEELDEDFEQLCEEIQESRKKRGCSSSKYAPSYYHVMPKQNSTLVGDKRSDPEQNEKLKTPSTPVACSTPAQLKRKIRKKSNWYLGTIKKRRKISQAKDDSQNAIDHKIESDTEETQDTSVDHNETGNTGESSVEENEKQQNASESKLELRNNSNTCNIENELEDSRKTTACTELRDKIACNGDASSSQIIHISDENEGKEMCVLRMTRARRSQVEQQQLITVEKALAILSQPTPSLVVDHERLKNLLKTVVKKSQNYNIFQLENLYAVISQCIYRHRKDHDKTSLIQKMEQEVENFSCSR
Kind of test: biochemical.

Test [2] has as its target T1, ATPase family AAA domain-containing protein 2.
For test [3] the target is unchanged. The source holds these as a separate data set.
The target in test [4] is Bromodomain-containing protein 4 (Homo sapiens, UniProt O60885). The test can be described thus: Binding affinity to BRD4 in human HUT78 cells incubated for 45 mins by mass spectrometry based bromosphere chemoproteomic assay. Format: cell-based.
The target of test [5] is T1, ATPase family AAA domain-containing protein 2. The source holds these as a separate data set.
Test [6] has as its target T2, Bromodomain-containing protein 4 (Homo sapiens, UniProt O60885, Y390A).
In test [7] the target is T1, ATPase family AAA domain-containing protein 2. The source holds these as a separate data set.
The target in test [8] is T2, Bromodomain-containing protein 4. This is another data set of the same source.
Test [9] concerns the target T1, ATPase family AAA domain-containing protein 2. The source holds these as a separate data set.
Test [10] shares this target. This is another data set of the same source.
Test [11] concerns the target T3, Bromodomain-containing protein 2 (Homo sapiens, UniProt P25440). Kind of test: Binding affinity to BRD2 containing BD1 bromodomains (unknown origin) by TR-FRET assay.
For test [12], the target named is T3, Bromodomain-containing protein 2. The test can be described thus: Binding affinity to BRD2 containing BD2 bromodomains (unknown origin) by TR-FRET assay.
Test [13] deals with Bromodomain testis-specific protein (Homo sapiens, UniProt Q58F21). Kind of test: Binding affinity to BRDt containing BD1 bromodomains (unknown origin) by TR-FRET assay.

As to `Cc1cncc(-c2ccc(N[C@@H]3CCNC[C@H]3OCC3CCS(=O)(=O)CC3)c3[nH]c(=O)c(C)cc23)c1`, the Kd in test [1] was 0.00794 µM; in [3], 0.06 µM and 0.0631 µM; in test [4] it was 1.26 µM. This compound gave an IC50 in test [2] of 0.0631 µM. Moreover, the pIC50 in [5] was determined as 7.4; in test [6], 5.4.
Take `Cc1cc2c(-c3cncc(N)c3)cnc(N[C@@H]3CCNC[C@H]3OCC3CCCCC3)c2[nH]c1=O`: the results for the IC50 in test [7], in [2] and in test [8] were 0.0398 µM, 0.126 µM and 0.631 µM, respectively. In test [3], the Kd was 0.05 µM and 0.0501 µM.
For the compound `Cc1cncc(-c2cnc(N[C@@H]3CCN(C)C[C@H]3OCC3CCS(=O)(=O)CC3)c3[nH]c(=O)c(C)cc23)c1`, the Kd in test [1] is 0.0631 µM; in [3], 0.2 µM. This compound also showed a Ki in [9] of 0.02 µM. Also, the IC50 in test [7] was 0.1 µM; in test [2], 0.316 µM; in [10], 0.251 µM.
In the case of `Cc1cc2ccnc(N[C@H]3CCNC[C@@H]3OCC3CCS(=O)(=O)CC3)c2[nH]c1=O`, the IC50 in test [2] is 50.1 µM.
Regarding `Cc1cc2ccnc(N[C@@H]3CCNC[C@H]3OCC3CCS(=O)(=O)CC3)c2[nH]c1=O`, the IC50 in test [7] is 0.501 µM; in [2], 0.794 µM. Besides, the Kd in test [3] was 1.1 µM and 1 µM.
As for `Cc1cc2ccnc(N[C@@H]3CCNC[C@H]3OCC3CCS(=O)(=O)CC3)c2[nH]c1=O` (racemic), the IC50 in test [7] was 1 µM; in test [2], 2.51 µM.
`Cc1cncc(-c2ccc(N[C@@H]3CCNC[C@H]3OCC3CCS(=O)(=O)CC3)c3[nH]c(=O)c(C)cc23)c1` (racemic): the IC50 in test [7] was 0.0398 µM; in test [2] it was 0.158 µM; in test [8] it was 3.98 µM.
In the case of `Cc1cncc(-c2cnc(N[C@@H]3CCNC[C@H]3OCC3CCS(=O)(=O)CC3)c3[nH]c(=O)c(C)cc23)c1`, the IC50 was 0.0316 µM in test [7]; 0.126 µM in test [2]; 0.126 µM in [10]; 31.6 µM in test [11]; greater than 31.6 µM in test [12]; 31.6 µM in test [13]. In test [3], the Kd was 0.09 µM and 0.0794 µM.
